In PubChem BioAssay (NCATS) one finds activity change, negative = inhibition and activation (PDE inhibition) data, which are given here for one compound.

Protein sequences, listed by entry. Tags and fused reporters are not part of them. Lines headed by an entry give the natural chain unless they say otherwise; changes in a name come on top.
UniProt Q07343: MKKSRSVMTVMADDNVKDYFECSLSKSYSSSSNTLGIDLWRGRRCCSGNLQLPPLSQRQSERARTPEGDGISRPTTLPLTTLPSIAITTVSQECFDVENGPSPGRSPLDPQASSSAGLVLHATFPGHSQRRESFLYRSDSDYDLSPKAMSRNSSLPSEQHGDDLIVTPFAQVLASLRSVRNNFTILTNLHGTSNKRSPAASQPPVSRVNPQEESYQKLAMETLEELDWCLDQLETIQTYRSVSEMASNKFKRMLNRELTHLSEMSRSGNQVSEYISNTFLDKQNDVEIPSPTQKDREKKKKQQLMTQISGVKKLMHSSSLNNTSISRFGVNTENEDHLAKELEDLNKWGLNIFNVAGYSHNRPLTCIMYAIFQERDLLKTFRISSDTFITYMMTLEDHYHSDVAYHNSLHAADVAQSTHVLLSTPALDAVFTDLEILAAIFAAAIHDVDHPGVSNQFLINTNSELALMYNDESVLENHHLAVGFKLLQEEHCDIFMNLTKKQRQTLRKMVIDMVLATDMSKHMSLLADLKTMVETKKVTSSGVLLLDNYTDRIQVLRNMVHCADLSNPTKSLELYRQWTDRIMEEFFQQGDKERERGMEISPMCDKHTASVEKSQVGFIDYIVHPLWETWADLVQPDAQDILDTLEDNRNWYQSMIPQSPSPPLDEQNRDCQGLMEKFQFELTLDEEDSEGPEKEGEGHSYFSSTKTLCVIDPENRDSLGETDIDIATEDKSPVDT

Experiment [1] in a line: NFAT Signaling Pathway (AID 444).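 Note: carbachol stimulus at about its EC50 of 1 µM final; % is set by controls: 0 for no effect and ±100 for the full control effect.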 The note with it: Jurkat NFAT-bla M1, carbachol, beta-lactamase ratio, 5 h; at 7.69 µM (top of the series) unless noted.
The target in experiment [2] is 3',5'-cyclic-AMP phosphodiesterase 4B (Homo sapiens) (UniProt Q07343). As to the kind of experiment: qHTS Assay for Inhibitors of PDE-IV (AID 607; active = well fitted activation curve with a large enough effect in the main read-out, with a control signal flat, not every such curve was filed as active; note: % of control where 0% means no effect). The note with it: HEK293 ACTOne CNG channel cells, membrane potential fluorescence; at 22.9 µM (top of the series). The gist of the method:
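The readout is membrane depolarisation from a cAMP-sensing CNG channel, detected with a potential dye at ex 535/em 590. Cells were HEK293-derived (endogenous PDE-IV) at 1000 cells/well, titrated up to 22.9 uM final.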

The entries are a selection whose mix differs from that of the whole data set. Records with an inconclusive call do not appear. The source made the active and inactive calls. Unless noted, calls come from the whole dose curve; as a rule, active = well fitted curve in either direction with a large enough effect (not every such curve was filed as active); inconclusive = small, poorly fitted or top-dose-only effect, or another doubt; inactive = flat fitted curve, though single readings scatter.

For `NS(=O)(=O)Cc1ccc([As](=O)(O)O)cc1`, the activity change, negative = inhibition in experiment [1] is inactive: 7.72%. In addition, the activation (PDE inhibition) in experiment [2] was inactive: -2.63%.
